The text below walks through data of PubChem BioAssay AID504810 (National Center for Advancing Translational Sciences (NCATS), 2011).

Amino acid sequences for entries named in this document (tags omitted).
UniProt P16473, whole entry, looked up: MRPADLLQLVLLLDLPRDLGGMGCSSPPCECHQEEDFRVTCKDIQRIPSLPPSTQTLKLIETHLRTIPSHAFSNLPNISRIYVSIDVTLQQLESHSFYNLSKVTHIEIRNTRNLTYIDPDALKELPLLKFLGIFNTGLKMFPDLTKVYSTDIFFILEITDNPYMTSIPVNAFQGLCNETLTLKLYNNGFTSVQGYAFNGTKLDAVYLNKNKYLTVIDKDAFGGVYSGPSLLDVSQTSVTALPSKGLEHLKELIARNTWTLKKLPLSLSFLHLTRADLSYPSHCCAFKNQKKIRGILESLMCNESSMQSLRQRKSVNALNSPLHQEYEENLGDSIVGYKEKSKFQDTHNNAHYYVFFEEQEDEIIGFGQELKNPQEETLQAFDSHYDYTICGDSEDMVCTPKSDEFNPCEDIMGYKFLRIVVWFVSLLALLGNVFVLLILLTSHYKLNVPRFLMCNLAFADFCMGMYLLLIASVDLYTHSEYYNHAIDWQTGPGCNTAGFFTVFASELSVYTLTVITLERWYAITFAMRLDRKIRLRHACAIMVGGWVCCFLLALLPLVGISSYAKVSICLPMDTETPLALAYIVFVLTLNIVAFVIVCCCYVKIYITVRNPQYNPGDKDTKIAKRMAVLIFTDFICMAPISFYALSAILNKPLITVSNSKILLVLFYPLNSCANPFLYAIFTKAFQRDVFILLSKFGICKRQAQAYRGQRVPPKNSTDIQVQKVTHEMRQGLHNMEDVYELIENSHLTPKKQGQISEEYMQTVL

Values joined by “and” are separate entries in the source; they are usually repeats but may differ in a detail not shown here. Equal values may be shown once. The list shows a part of the results, in another mix than the full data. Active and inactive are the calls of the source.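 How the source made its calls: active means activity change below a set negative limit, meaning inhibition stronger than a set level (cut at about -70% in these data); inconclusive means activity change between two set negative limits; inactive means the rest.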
On the % scale 0 is the no-effect control and ±100 the full control effect.

The test deals with Thyrotropin receptor (Homo sapiens) (UniProt P16473). Nature of the test: Antagonists of the Thyroid Stimulating Hormone Receptor: HTS campaign. Particulars: TSHR-expressing cells, TSH-stimulated cAMP HTRF, 2 h; at 11.5 µM; hits give low values. In short, it runs like this: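 Read-out is FRET at 665 nm (cryptate excitation 337 nm) from a cryptate-tagged anti-cAMP antibody, competed by cell cAMP against cAMP-d2. Compounds are tested on freshly harvested TSHR cells challenged with 4nM TSH (EC80) for 2 hours at 37 deg C.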
(In general: Time-resolved FRET reads energy transfer from a long-lived donor to a nearby acceptor.)
For `Nc1ccc([As](=O)(O)c2ccc([N+](=O)[O-])cc2)cc1`, the activity change, negative = inhibition is inactive: 1.18%. Take `CN(C)C1(CNC(=O)c2ccc(Cl)c(S(N)(=O)=O)c2)CCCCC1`: the activity change, negative = inhibition is inactive: 11.3%. For the compound `O=P(Nc1ccccn1)(c1ccc(Br)cc1)c1ccc(Br)cc1`, the activity change, negative = inhibition is inactive: 6.78%. Consider `C[C@H]1OP(=O)(Oc2ccccc2)[C@H](O)[C@H](O)[C@H]1N=[N+]=[N-]` (some centres undefined), for which the activity change, negative = inhibition was inactive: -4.19%.

With `O=P(Nc1nc2ccccc2s1)(c1ccccc1)c1ccccc1`, the activity change, negative = inhibition is inactive: -2.51%. As to `O=P(Nc1nccs1)(c1ccccc1)c1ccccc1`, the activity change, negative = inhibition was inactive: 5.67%. Next, `CC(C)C(=O)NC(Sc1ccccc1)C(Cl)(Cl)Cl` (centres undefined): inactive: -10.6%; `c1nnnn1CCn1cnnn1`: inactive: -3.52%.

`CCN(/C(=N/P(=O)(N1CCOCC1)N1CCOCC1)N1CCOCC1)c1ccc(OC)cc1`: the activity change, negative = inhibition is inactive: -3.63%.

Regarding `C[N+]1=C2C=CC=CC=C2SC12C([N+](=O)[O-])=CC([N+](=O)[O-])=C[C-]2[N+](=O)[O-]` (centres undefined), the activity change, negative = inhibition was inactive: -4.41%. Then `Nc1ccc([As](=O)(O)c2ccc(N)cc2)cc1`, with inactive: 19.8%; and `CC1CCN(C(=O)Oc2c(Cl)cc(Cl)c3cccnc23)CC1`, with inactive: -0.902%. Next, `CC(C)=N/N=C(\N)N[N+](=O)[O-]`: inactive: 25.2%; `COc1ccc(C2=NCC(CBr)S2)cc1` (centres undefined): inactive: -3.27%.

Take `O=[N+]([O-])c1cc([N+](=O)[O-])c(CCNc2ccccc2)c([N+](=O)[O-])c1`: the activity change, negative = inhibition is inactive: -40.4%. Then `CCc1nc2c(n1)c1c(non1O)c1c2no[n+]1[O-]`, with inactive: -22.8%. Then `Cc1ccc(NP(=O)(Oc2ccccc2)Oc2ccccc2)nc1`, with inactive: -5.47%; and `CC(=O)N1C2C3N(C(C)=O)C1C1N(C(C)=O)C(C(N1C(C)=O)N3C(C)=O)N2C(C)=O`, with inactive: 25.5%. Next, `O=[N+]([O-])c1cccc2n[nH]nc12`: inactive: 16.8%. `O=[N+]([O-])c1ncn(CCn2ncnc2[N+](=O)[O-])n1`: the activity change, negative = inhibition is inactive: 7.27%.

In the case of `CC(C)(C)C(=O)NC(Sc1ccncn1)C(Cl)(Cl)Cl` (centres undefined), the activity change, negative = inhibition was inactive: 4%. Consider `O=C(O)CNc1ccc([As](=O)(O)O)cc1`, for which the activity change, negative = inhibition was inactive: -1.04%. Turning to `O=[N+]([O-])c1cccc(NC2=NCC(CBr)S2)c1` (centres undefined), the activity change, negative = inhibition was inactive: 19.4%.

For `O=C(Nc1cc([As](=O)(O)O)ccc1O)c1ccccc1`, the activity change, negative = inhibition was inactive: 11%. Next, `O=[N+]([O-])c1cc([N+](=O)[O-])c(CCN2CCOCC2)c([N+](=O)[O-])c1`: inactive: -10.1%. Next, `Nc1cccc2ccc([As](=O)(O)O)cc12`: inactive: -3.58%; `CCN(N=Nc1nonc1N)c1nonc1N`: inactive: -3.45%; `O=P(Nc1nc2ccc(Cl)cc2s1)(c1ccccc1)c1ccccc1`: inactive: 6.27%. Next, `CC(=O)Nc1ccc([As](=O)(O)O)cc1`: inactive: -13.3%; `O=C(O)c1ccccc1[As](=O)(O)O`: inactive: 4.87%; `Cc1ccc(NP(=O)(Oc2ccccc2F)Oc2ccccc2F)nc1`: inactive: 16.5%. As to `Cc1cc(SC(NC(=O)c2ccc(F)cc2)C(Cl)(Cl)Cl)ncn1` (centres undefined), the activity change, negative = inhibition was inactive: -7.98%. Next, `CCOP(=O)(Nc1ccccc1)OCC`: inactive: -3.54% and inactive: -6.57%; `O=C(NC(Sc1ccncn1)C(Cl)(Cl)Cl)c1ccccc1` (centres undefined): inactive: 9.19%; `Oc1ccccc1CNc1ccccn1`: inactive: 18.1%. Then `Nc1cc(N)c2nonc2c1[N+](=O)[O-]`, with inactive: -8.27%. Turning to `CC(C)CC(=O)NC(Sc1ccc(Cl)cc1)C(Cl)(Cl)Cl` (centres undefined), the activity change, negative = inhibition was inactive: -10.9%. Take `Cc1ccc(N/C(=N/P(=O)(N2CCOCC2)N2CCOCC2)N2CCOCC2)cc1`: the activity change, negative = inhibition is inactive: -3.08%. Next, `NC(=O)c1cc([N+](=O)[O-])cc([N+](=O)[O-])c1N`: inactive: 36.5%; `CN1CCCC(OC(=O)C(c2ccccc2)c2ccccc2)C1` (centres undefined): inactive: 14.6%.

`Clc1ccc(Cl)c(NC2=NCC(CBr)S2)c1` (centres undefined): the activity change, negative = inhibition is inactive: 15.6%. Next, `Cc1ccc(OP(=O)(Nc2nccs2)Oc2ccc(C)cc2)cc1`: inactive: -2.52%; `COc1ccccc1OP(=O)(Nc1ccc(C)cn1)Oc1ccccc1OC`: inactive: 2.44%. Next, `COc1ccc(N/C(=N/P(=O)(N2CCOCC2)N2CCOCC2)N2CCOCC2)cc1`: inactive: -2.55%; `Cc1c2c(nc3ccccc13)SC(C(Cl)Cl)C2` (centres undefined): inactive: -1.63%; `Cc1cc(=O)[nH]c(N[N+](=O)[O-])n1`: inactive: -4.72%. Then `O=C(OC1CN2CCC1CC2)C12CC3CC(CC(C3)C1)C2` (centres undefined), with inactive: 6.03%; and `COc1cc(I)ccc1[As](=O)(O)O`, with inactive: 2.89%; and `COc1ccc2nc(NP(=O)(c3ccccc3)c3ccccc3)sc2c1`, with inactive: -2.84%. As for `ClCCSc1nnc(-c2cccnc2)o1`, the activity change, negative = inhibition was inactive: -4.32%.

On to `CC(C)c1ccc(OP(=O)(Nc2ccccn2)Oc2ccccc2F)cc1` (centres undefined), for which the activity change, negative = inhibition is inactive: -6.46%.

As for `O=[N+]([O-])c1cc([N+](=O)[O-])c(-c2ccn[nH]2)s1`, the activity change, negative = inhibition is inactive: -12.7%.

Take `CC(C)NC(=O)NP(=O)(Oc1ccccc1)Oc1ccccc1`: the activity change, negative = inhibition was inactive: 2.33%. Then `CCN(CC)C(=S)SC(NC=O)C(Cl)(Cl)Cl` (centres undefined), with inactive: -3.93%; and `COc1cc(C(=O)NCC2(N3CCOCC3)CCCCC2)ccc1OCC(C)C`, with inactive: -4.07%; and `O=[As](O)(c1ccc(O)cc1)c1ccccc1O`, with inactive: 22.1%.

On to `C[As](=O)(O)c1cccc(C(=O)O)c1`, for which the activity change, negative = inhibition was inactive: 21.1%. Then `Cc1ccc(OP(=O)(Nc2ccc([N+](=O)[O-])cn2)Oc2ccc(C)cc2)cc1`, with inactive: -8.35%. Then `Cc1ccc2nc3c(c(C)c2c1)CC(C(Cl)Cl)S3` (centres undefined), with inactive: -9.89%; and `CCOC(=O)Nc1cccc([As](=O)(O)O)c1`, with inactive: 0.829%. Next, `Cc1cc(SC(NC=O)C(Cl)(Cl)Cl)ncn1` (centres undefined): inactive: 7.51%; `O=P(Nc1ccccn1)(c1cccc2ccccc12)c1cccc2ccccc12`: inactive: 3.19%; `O=[N+]([O-])c1ccc(Nc2ccc(Oc3ccc([N+](=O)[O-])cc3[N+](=O)[O-])cc2)c([N+](=O)[O-])c1`: inactive: 3.56%. For the compound `CCOC(=O)Nc1ccc([As](=O)(O)O)c(O)c1`, the activity change, negative = inhibition is inactive: -7.59%.
